Laboratory results: patent US8318741B2, “Therapeutic compositions and methods” (The Texas A & M University System, priority 2005, dated 2012)

Assay: LD50 determination / acute oral toxicity
Set-up: species or system mice
Conditions: both sexes, mouse, in vivo, 20 g/kg, orally
Protocol: LD50 determination: For each dose, 20 mice of either sex, weighing 18-20 g were used to determined the LD50 according to the method of Litchfield & Wilcoxon, J. Pharmacol. Exp. Ther. 96:99-113 (1949). Animals were housed in an animal room at 25° C. and 70% relative humidity. The light cycle was set for 12 h light and 12 h darkness. CK-17 was grounded with Tween 80 and then suspended in 1% CMC (carboxymethyl cellulose).

Compound CC1(Br)CSC(=Nc2ccccc2)N(c2ccccc2)C1=O (stereo not shown) [CK-17, 5-bromo-5-methyl-3-phenyl-2-phenylimino-1,3-thiazinan-4-one] has an LD50 at 7 d of at least 20000 mg/kg.
